Values of other authors, collected in US8425908B2, “Treatment with anti-ErbB2 antibodies” (Genentech, Inc., priority 1997, dated 2013).

System: BT-474 human breast adenocarcinoma cells
Details: BT-474 xenografts in nude mice; cited from earlier work

Substance: HERCEPTIN®: recombinant humanized anti-ErbB2 monoclonal antibody, a humanized version of the murine anti-ErbB2 antibody 4D5
- enhancement of chemotherapy activity against xenografts: enhance the activity of paclitaxel (TAXOL®) and doxorubicin
